Measurements as given in patent US9393221B2, “Methods and compounds for reducing intracellular lipid storage” (THE GENERAL HOSPITAL CORPORATION, priority 2011, dated 2016).

system: ATGL-KO iPSCs; assay: High throughput iPSC chemical screening, Oil Red O (ORO) lipid accumulation; conditions: glycolytic switch compounds; on Z-score: test concentration or dose not given here

Molecule | Rank in normalized ORO score from screen
Thiethylperazine malate | 118

same assay, conditions: normalized ORO level vs DMSO-treated cells; compound present during 7 days differentiation, 96-well; negative = decrease in lipid accumulation

Molecule | Z-score
c1ccc(CN(CC2=NCCN2)c2ccccc2)cc1 [Antazoline hydrochloride] | −1.2181
Thiethylperazine malate | −1.2229
Pirlindole mesylate | −0.619
CC(=O)N(CC(O)CN(C(C)=O)c1c(I)c(C(=O)NCC(O)CO)c(I)c(C(=O)NCC(O)CO)c1I)c1c(I)c(C(=O)NCC(O)CO)c(I)c(C(=O)NCC(O)CO)c1I (stereo not drawn) [Iodixanol] | −1.2199
C=C[C@H]1CN2CC[C@H]1C[C@H]2[C@H](O)c1ccnc2ccccc12 [(−)-Cinchonidine] | −1.2185

Where a name gives a salt, the structure may show the parent alone.
